Ab-95 light chain CDR variants: yeast mating affinities

Data: MIT Lincoln Laboratory AlphaSeq set, Engelhart et al. 2022, doi:10.1038/s41597-022-01779-4, as distributed in FLAb.

All variants were tested on one target, the spike HR2 peptide PDVDLGDISGINAS (SARS-CoV-2).

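The parent was found by panning a naive human phage display library on the peptide. The library (AAYL52) carries one to three amino acid substitutions per variant, with no insertions or deletions. Affinity was read by AlphaSeq, a pooled yeast mating assay with surface-displayed partners. Pairs that bind mate more often; barcode pairs of the diploids are counted by sequencing. The ratio of observed to expected reads was calibrated, replicate by replicate, on BCL2-family standards whose Kd was known from biolayer interferometry. Mating was done three times.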

Each scFv is VH, a 15-residue (Gly4Ser)3 linker, VL, as in the parent Ab-95, and differs from it in the CDRs of the light chain only.
VH: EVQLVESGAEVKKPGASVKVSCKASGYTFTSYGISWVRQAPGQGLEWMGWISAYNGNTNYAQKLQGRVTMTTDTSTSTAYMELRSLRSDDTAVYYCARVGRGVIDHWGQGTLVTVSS
VL: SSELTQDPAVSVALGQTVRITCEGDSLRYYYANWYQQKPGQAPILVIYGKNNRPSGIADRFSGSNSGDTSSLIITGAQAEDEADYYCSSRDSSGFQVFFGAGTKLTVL

The parent's light chain CDRs are EGDSLRYYYAN, GKNNRPS, SSRDSSGFQVF; each variant's own CDRs replace them letter for letter.
Values are log10 of the apparent Kd in nM; lower means stronger binding.
An entry "nd" has no value in the source: the pair was not observed among the diploids in that replicate. This suggests poor binding but is not conclusive.
Empty control strains, which show no peptide, gave a signal in 28% of pairings with library AAYL52; the median was 3.91 and 95% of these signals were weaker than 2.90. No background was subtracted. The control count says in how many pairings with the empty strains this scFv gave a signal, with their mean in brackets.
For reference, the parent read 2.31 as the reference entry and 2.25 as a member of this library.

| # | CDR-L1 | CDR-L2 | CDR-L3 | log10 Kd, replicates | empty controls |
|---|---|---|---|---|---|
| 1 | EGDSMIMYYAN | GKNNRPS | SSRDSSGFQVF | nd nd 3.74 | 2/9 (3.20) |
| 2 | EGDSLRYYYAN | GKNNRPS | RCRDSSGWQVF | 4.04 nd 4.54 | 5/9 (4.10) |
| 3 | EGDSLDYAYAN | GKNNRPS | SSHDSSGFQVF | 1.47 1.34 0.90 | 3/9 (4.26) |
| 4 | EGTQLRYYYAN | GKNNRPS | SSRDSSGFPVF | 4.83 3.11 nd | 3/9 (4.21) |
| 5 | EGDSLRYYYAN | GENNRPS | SSRDSPGNQVF | 2.39 2.67 3.51 | 1/9 (4.90) |
| 6 | SGDSLRYYYAN | GKNNEPS | PSRDSSGFQVF | 3.55 4.02 nd | 4/9 (4.06) |
| 7 | EGDSLRYYYAN | GKNNRPS | SSRMSSGFQVF | 2.25 2.16 1.26 | 1/9 (3.46) |
| 8 | EPFSLRYYYAN | QKNNRPS | SSRDSSGFQVF | nd 4.16 nd | 2/9 (4.68) |
| 9 | EGDSLRPYYAN | GKNNRPS | SSHDSSGFQCF | nd nd nd | 0/9 |
| 10 | EGDSLRCYYAN | GKNNRPS | SSRDPVGFQVF | 3.36 nd nd | 0/9 |
| 11 | EGDALRYYYAN | GKNNRPS | SSRDSSGAQVF | 1.84 2.10 1.40 | 2/9 (3.83) |
| 12 | EGDSLRYIVAN | GANNRPS | SSRDSSGFQVF | nd nd 2.83 | 2/9 (3.11) |
| 13 | EGDILRYYYFN | GKNNRPS | SSRDNSGFQVF | 3.08 nd nd | 0/9 |
| 14 | EGLSLRYYMAN | GKCNRPS | SSRDSSGFQVF | 3.60 nd nd | 1/9 (3.91) |
| 15 | EGDVLRYYYAN | GKNSRPS | SSQDSSGFQVF | 5.36 nd nd | 0/9 |
| 16 | EGKLLQYYYAN | GKNNRPS | SSRDSSGFQVF | nd nd nd | 2/9 (4.19) |
| 17 | EGDSLRYYIAN | GKNNRPS | SSRDSSGHQDF | nd nd nd | 1/9 (4.40) |
| 18 | EGDSLRYYTMN | GKNNRPS | SRRDSSGFQVF | nd 5.41 nd | 2/9 (3.82) |
| 19 | EGDSLRYYYAN | GKNNVPS | SSRDSSGFQVF | 3.01 2.82 3.01 | 1/9 (3.27) |
| 20 | QGDSLRHYYAN | GKNNRPS | SSRDSSVFQVF | 2.06 2.61 3.05 | 1/9 (3.53) |
| 21 | EGDSLRYYYAN | GDNNNPS | SSRDSCGFQVF | 3.77 nd nd | 4/9 (4.65) |
| 22 | EGDSLRYYYVN | GKNNRPS | SSRDSSGRQRF | nd nd nd | 3/9 (4.46) |
| 23 | EGDSLRYYYAN | GKNNRES | SSRCSSGIQVF | 2.69 4.39 3.10 | 4/9 (3.34) |
| 24 | EDDSHRYFYAN | GKNNRPS | SSRDSSGFQVF | 3.74 3.15 2.97 | 1/9 (2.85) |
| 25 | EGDSLRYCYAN | GKNNRPD | SSRDSSGFKVF | 2.26 2.04 3.30 | 1/9 (4.04) |
| 26 | EGDSLRYNYAN | GKNNGPS | SSRDSSGFQVF | 1.61 1.47 1.02 | 7/9 (4.16) |
| 27 | EGFELRYYYAN | MKNNRPS | SSRDSSGFQVF | nd nd nd | 0/9 |
| 28 | WGDSLRYYYAN | GKNNRPP | SSRDSSGFGVF | nd 5.83 3.81 | 6/9 (3.54) |
| 29 | EGDSLRYYYAN | GKNNRPS | SSIDSIGFGVF | nd 4.13 nd | 1/9 (4.13) |
| 30 | ELDSLRYYYAN | GKNNRPS | SSWKSSGFQVF | 4.18 5.56 nd | 2/9 (4.90) |
| 31 | LGDSLRYYYAH | GKNNRPS | SRRDSSGFQVF | 3.69 nd 3.44 | 3/9 (3.73) |
| 32 | EIDSLRYYYAN | GKNNRHS | SSRDSSGFQVF | 2.13 3.07 1.89 | 1/9 (3.60) |
| 33 | EGDSLRYYYAN | GKNNRPS | LSRDSFGFQVF | 4.06 3.10 2.83 | 4/9 (4.14) |
| 34 | EGDSLTYYYAN | GKVNGPS | SSRDSSGFQVF | nd nd nd | 2/9 (4.27) |
| 35 | EGGSLRYEYAN | GKNNRPS | SSTDSSGFQVF | 1.98 1.47 1.80 | 4/9 (4.28) |
| 36 | EGDSLRYYYAN | GKNNRPS | SSRDGSGFQEC | 4.51 4.08 4.37 | 1/9 (4.44) |
| 37 | EGDSLRSYYAR | GKNNRPS | SSRDWSGFQVF | nd 5.75 nd | 0/9 |
| 38 | EGDSERYYYAN | GKNNRCS | SSRDSSGFQVF | nd 4.56 4.28 | 4/9 (3.95) |
| 39 | EGDSLRHYYAN | GKNNRPS | SHRDSSGFQVS | nd 3.01 nd | 5/9 (3.71) |
| 40 | EGDSLRYYYAL | GKNNRPS | SSRDSKGYQVF | 3.70 nd nd | 2/9 (4.14) |
| 41 | EGDSERYYYAN | GKNNRPS | SSRDSSNFQVK | nd 2.55 4.04 | 2/9 (3.92) |
| 42 | EGDSLTYYYAN | GKNNRPS | SSRDSSEIQVF | nd 3.45 2.72 | 3/9 (4.39) |
| 43 | EGDMLRYYYAP | GKNNRPS | SRRDSSGFQVF | 1.97 2.81 2.75 | 2/9 (3.74) |
| 44 | QGDSLRYYYAN | GKNNQPS | SSRDSSPFQVF | nd nd nd | 1/9 (2.59) |
| 45 | EGQSLRYYYAN | GKNNRPS | SRRDSSGFQVF | nd 3.02 2.49 | 0/9 |
| 46 | PGDSLRYYYAN | GKNNPPS | SSRDSKGFQVF | nd nd nd | 4/9 (3.80) |
| 47 | EGMSLRYYYAN | GVNNRPS | TSRDSSGFQVF | 2.94 3.90 3.61 | 6/9 (4.42) |
| 48 | EGDSNRYPYAN | GKNIRPS | SSRDSSGFQVF | 1.57 1.62 1.52 | 0/9 |
| 49 | EGDSLRLYYAN | GKNHRWS | SSRDSSGFQVF | 3.69 4.06 3.38 | 4/9 (3.74) |

The first 4 entries again:

{"CDR-L1": "EGDSMIMYYAN", "CDR-L2": "GKNNRPS", "CDR-L3": "SSRDSSGFQVF", "log10 Kd, replicates": "nd nd 3.74", "empty controls": "2/9 (3.20)"}
{"CDR-L1": "EGDSLRYYYAN", "CDR-L2": "GKNNRPS", "CDR-L3": "RCRDSSGWQVF", "log10 Kd, replicates": "4.04 nd 4.54", "empty controls": "5/9 (4.10)"}
{"CDR-L1": "EGDSLDYAYAN", "CDR-L2": "GKNNRPS", "CDR-L3": "SSHDSSGFQVF", "log10 Kd, replicates": "1.47 1.34 0.90", "empty controls": "3/9 (4.26)"}
{"CDR-L1": "EGTQLRYYYAN", "CDR-L2": "GKNNRPS", "CDR-L3": "SSRDSSGFPVF", "log10 Kd, replicates": "4.83 3.11 nd", "empty controls": "3/9 (4.21)"}